Nrf2 ARE act – activators of Nrf2 (ARE) signaling; AREc32 ARE-luciferase reporter (MCF7-derived line), luminescence, 24 h; Potency, µM (top dose mostly 46.1 µM), for inactives: top-dose activation, actives largely listed as activators; 410,000 tested, 0.31% active; also: potency is read from the fitted curve at half-maximal effect; % of control where 0% means no effect; nearly all actives have a fitted effect of over 65% in size
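Luminescent ARE reporter assay in AREc32_Fluc cells: overnight plating at 37 deg C, 24 hr compound incubation, Steady-Glo added, 30 min RT before reading.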
A549 tox – counter-screen for Nrf2 inhibitors: cytotoxicity in A549 cells; A549 ARE-Fluc cells, CellTiter-Fluor viability, 18-24 h; Potency, µM (top dose mostly 46 µM), for the others: at the top dose activity change, negative = cytotoxicity, usual class: inhibitors; 390,000 tested, 0.16% active; AID 504648; also: potency is read from the fitted curve at half-maximal effect; % is scaled to controls: 0 for no effect and ±100 for the full control effect
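Cytotoxicity counterscreen: CellTiter-Fluor fluorescence was measured in A549 ARE_Fluc cells after 18-24 h of compound exposure in a concentration series. The subsequent BugLite luminescent read reports ARE-luciferase activity.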
ClpP mod – qHTS Assay for Activators of ClpP. purified B. subtilis ClpP, FRET peptide cleavage, 20 min. Potency, µM (series often up to 57.5 µM), for the others: at the top dose activity change, negative = active. 340,000 tested, 1.9% active. AID 651965, 2013; active = well fitted falling curve with a large enough effect; inconclusive = small, poorly fitted or top-dose-only effect; inactive = no such curve, though single readings can be large or run the other way; also: potency is read from the fitted curve at half-maximal effect; the source files actives as falling curves though it sought activators and does not explain the sign; nearly all actives have a fitted effect of over 65% in size
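Purified B. subtilis ClpP, 10 microg/mL final in Tris/HCl pH8 with KCl, BSA, glycerol and Tween-20, cleaved an Abz/nitrotyrosine-quenched decapeptide. Fluorescence (ex 320, em 430) was read at 0 and 20 min at room temperature. Delta was normalized to 5.8 microM ADEP and DMSO/no-enzyme controls.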
miR-21 reporter – miR-21 reporter, rising signal; HeLa miR-21 FLuc reporter, luciferase, 48 h; Potency, µM (highest dose often 38.3 µM), for the others: top-dose reporter change, positive = more light; 340,000 tested, under 10 active; AID 2288; active = well fitted rising curve with a large enough effect; inconclusive = small, poorly fitted or top-dose-only effect; inactive = no such curve, though single readings can be large or run the other way;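 further: % of control where 0% means no effect; miR-21 action dims this reporter so a rising signal means less miR-21 action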
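Compounds were titrated across several concentrations (up to approximately 40 uM) and incubated 48 hours with HeLa miR-21-FLuc reporter cells (miR-21 target sequence downstream of FLuc, endogenous miR-21). Readout was firefly luciferase luminescence after lytic detection reagent.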
Nrf2 block – Nrf2 pathway inhibition; A549 ARE-Fluc reporter, luciferase luminescence, 18-24 h; AID 504444; Potency, µM (doses to about 46 µM), inactives show top-dose activity change, negative = inhibition, usual class: inhibitors; 360,000 tested, 2.1% active; also: potency is read from the fitted curve at half-maximal effect; % is scaled to controls: 0 for no effect and ±100 for the full control effect; nearly all actives have a fitted effect of over 60% in size
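Quantitative HTS in A549 cells stably bearing an antioxidant response element-firefly luciferase construct. Inhibition of Nrf2-driven transcription was scored by luminescence after 18-24 h of compound exposure at 37 °C.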
IL2 activator – IL-2 activation; IL-2 activation reporter assay, cell-based qHTS; stimulated with anti-CD3/CD4/CD28 beads; in transgenic mouse T cells; activation, % (series mostly up to about 46 µM); 360,000 tested, 0.065% active; AID 652025; in the data active = activation above about 50%; inconclusive = mostly about 30% to 49%; also: 0% is about no effect
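Unstimulated transgenic mouse T cells preincubated 60 min with compound, then stimulated with anti-CD3/anti-CD4-coated beads plus anti-CD28 for 18 h at 37 degrees C. IL-2 response read as EGFP and DsRed fluorescence by plate cytometry.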
* hit, by the source's call; ? = inconclusive; · = no result given; ! = not confirmed by another sample. An excerpt weighted towards active compounds, which were near 3.7% of everything screened. Unless noted, calls follow the shape of the dose curve; as a rule, active = well fitted curve in the direction sought with a large enough effect; inconclusive = small, poorly fitted or top-dose-only effect, or another doubt; inactive = no such curve, though single readings can be large; an effect the other way counts as inactive or inconclusive.

Field names – A = Nrf2 ARE act; B = A549 tox; C = ClpP mod; D = miR-21 reporter; E = Nrf2 block; F = IL2 activator
> COc1ccc(CNC(=O)c2cc(=O)c3ccccc3o2)cc1
  A: -0.7%; B: 2.7%; C: -3.6%; D: 1.1%; E: 13µM*; F: -2.7

> COc1ccc(CNC(=O)c2cccc(-c3ccc(C)c4ccccc34)n2)cc1
  A: -1.2%; B: -5.8%; C: 25.1µM*; D: 3.9%; E: -2.7%; F: -0.2

> CCc1ccccc1S(=O)(=O)Cc1ccc(C(=O)NCCc2ccc(C)cc2)o1
  A: 5.7%; B: 1.7%; C: -0.4%; D: 24.0%; E: -22.2%; F: ·

> CC(C)N(Cc1ccccc1)c1ncnc2c1nnn2C
  A: -0.4%; B: 0.9%; C: 0.2%; D: -17.4%; E: ·; F: ·

> CCOC(=O)c1cc(C(=O)NCc2ccc(Cl)cc2Cl)nn1C
  A: 0.2%; B: -17.0%; C: -1.8%; D: -22.5%; E: 20.6µM*; F: 0.7

> Cc1ccc(Oc2nc(-c3ccccc3)ncc2S(=O)(=O)c2ccc(C)cc2)cc1
  A: -0.3%; B: 12.0%; C: 22.4µM*; D: -1.8%; E: ·; F: 2.1

> Cc1ccc(NC(=O)Cn2nnc(-c3nc(-c4ccc(Cl)cc4)no3)c2N)cc1C
  A: -0.3%; B: -1.1%; C: -2.6%; D: -0.7%; E: ?; F: ·

> COc1cccc(C(C)NC(=O)Nc2ccccc2Cl)c1 (centres undefined)
  A: -2.5%; B: 3.3%; C: -1.9%; D: 1.0%; E: 10.3µM*; F: -0.6

> COc1cccc(CN2CCN(CC(=O)Nc3ccccc3Cl)CC2)c1
  A: 0.6%; B: 5.0%; C: 14.1µM*; D: -1.2%; E: -2.4%; F: -1.9

> COc1cccc(C(C)NC(=O)c2c(F)cccc2Cl)c1 (centres undefined)
  A: 0.0%; B: 0.4%; C: ?; D: -0.6%; E: 4.7%; F: -0.8

> Cc1ccc(NC(=O)c2cnc(N3CCCCC3)c3ccccc23)cc1Cl
  A: 1.4%; B: -0.4%; C: 31.6µM*; D: 1.0%; E: ·; F: ·

> Cc1cc(C(=O)N2CCN(c3cccc(Cl)c3)CC2)c2c(C)nn(-c3ccccc3Cl)c2n1
  A: -0.2%; B: -26.8%; C: -3.2%; D: 26.8%; E: 18.4µM*; F: ·

> CCOC(=O)c1ccccc1NC(=O)c1cnc(N2CCOCC2)c2ccccc12
  A: 3.9%; B: -18.1%; C: 31.6µM*; D: -3.3%; E: ·; F: ·

> Cc1ccc(NC(=O)c2cnc(N3CCN(c4ccccn4)CC3)c3ccccc23)c(Br)c1
  A: -0.5%; B: -12.5%; C: ·; D: ?; E: 14.6µM*; F: -1.0

> COc1ccc(NC(=O)c2cnc(N3CCCCC3)c3ccccc23)cc1Cl
  A: -0.6%; B: -23.5%; C: ?; D: 12.0%; E: ·; F: ·

Field names – A = Nrf2 ARE act; B = A549 tox; C = ClpP mod; D = miR-21 reporter; E = Nrf2 block; F = IL2 activator
> CN(C)c1ccc(/C=C/c2ccc3cc(N)ccc3n2)cc1
  A: ·; B: ·; C: -7.3%; D: ·; E: ·; F: ·

> O=C(/C=C/c1ccc(C(F)(F)F)cc1)OC(C(=O)NC1CC1)c1ccccc1 (centres undefined)
  A: ·; B: ·; C: -2.7%; D: ·; E: ·; F: ·

> O=C(c1cnc(N2CCCCC2)c2ccccc12)N1CCN(c2cccc(Cl)c2)CC1
  A: -0.1%; B: -16.1%; C: 28.2µM*; D: 25.5%; E: ·; F: ·

> Clc1ccc2oc(-c3ccccn3)nc2c1
  A: 11.2%; B: -2.2%; C: 15.8µM*; D: -34.0%; E: ?; F: -0.7

> c1ccc(-c2nc3ccccc3o2)nc1
  A: 4.5%; B: -4.6%; C: 12.6µM*; D: -32.8%; E: ?; F: -3.5

> Cc1ccnc2ccc(-c3nc4ccccc4o3)cc12
  A: ?; B: -5.5%; C: 35.5µM*!; D: -39.8%; E: ?; F: 0.0

> Nc1ccc2oc(-c3ccccn3)nc2c1
  A: 0.2%; B: -1.0%; C: -5.0%; D: -43.6%; E: 3.5%; F: -1.1

> Cc1nc(-c2ccc(C)c(S(=O)(=O)N3CCC(C(=O)NCc4ccc(Cl)cc4)CC3)c2)no1
  A: 0.1%; B: -4.3%; C: -4.6%; D: 12.5%; E: ·; F: ·

> O=C(CSc1nc2scc(-c3ccccc3)c2c(=O)[nH]1)Nc1ccccc1
  A: 7.2%; B: 0.7%; C: 2.5%; D: 0.7%; E: ?; F: -1.6

> CC(C)CNC(=O)CSc1nc2scc(-c3ccccc3)c2c(=O)[nH]1
  A: 0.0%; B: -4.4%; C: 22.4µM*; D: -1.3%; E: -23.7%; F: -0.6

> CCCCNc1ccccc1C(=O)OCC(=O)Nc1ccc(S(N)(=O)=O)cc1
  A: -0.9%; B: ?; C: 28.2µM*; D: -1.1%; E: ?; F: -3.2

> CCC(=O)Nc1ccccc1C(=O)OCC(=O)Nc1ccc(S(N)(=O)=O)cc1
  A: -0.1%; B: -0.5%; C: -28.9%; D: -3.0%; E: 7.6%; F: -2.3

Complete entries as entered above. Order of screens: Nrf2 ARE act, A549 tox, ClpP mod, miR-21 reporter, Nrf2 block, IL2 activator
c1ccc(-c2nc3ccccc3o2)nc1 in the list: 4.5%, -4.6%, 12.6µM*, -32.8%, ?, -3.5
Cc1nc(-c2ccc(C)c(S(=O)(=O)N3CCC(C(=O)NCc4ccc(Cl)cc4)CC3)c2)no1 in the list: 0.1%, -4.3%, -4.6%, 12.5%, ·, ·
CCCCNc1ccccc1C(=O)OCC(=O)Nc1ccc(S(N)(=O)=O)cc1 in the list: -0.9%, ?, 28.2µM*, -1.1%, ?, -3.2

Compound activity from PubChem BioAssay.
